{"source": "PubChem BioAssay AID595", "about": "(National Center for Advancing Translational Sciences (NCATS), 2007)", "note": "Only a part is listed here, and it is no random draw. Inconclusive results are not listed. The source made the active and inactive calls. The call rests on the fitted dose curve; in most records, active means well fitted curve in either direction with a large enough effect; inconclusive means small, poorly fitted or top-dose-only effect, or another doubt; inactive means flat fitted curve, though single readings scatter. On the % scale 0 is the no-effect control and ±100 the full control effect."}
{"tested_on": "Hsp90 C-terminal peptide / TPR2A (Hop) interaction, human", "test": "qHTS Assay for Disrupters of an Hsp90 Co-Chaperone Interaction", "conditions": "AlphaScreen TPR2A-His6 binding biotin-Hsp90 C-terminal peptide; at 57 µM (top of the series) unless noted", "source_text": "NIH Chemical Genomics Center [NCGC]\nNIH Molecular Libraries Screening Centers Network [MLSCN]\nHsp90 (heat shock protein 90) is the essential molecular chaperone and it accounts for 1-2% of all cytosolic proteins and is critical for the activity of diverse cellular proteins that are involved in a variety of cellular processes, including development, cell cycle, and steroid hormone signaling. Its client proteins include signaling kinases such as IGF1R, Akt, v-Src, Raf-1; regulators of cell survival such as Bcr-Abl; and transcription factors such as mutated p53, estrogen and progesterone receptors. Hsp90 has emerged as an important target for cancer treatment due to its essential role in maintaining transformation and regulating the function of oncogenic signaling proteins.\nThe in vivo function of Hsp90 is regulated by the binding and hydrolysis of ATP at its N-terminal. Geldanamycin binds to ATP site and inhibit Hsp90 function. Geldanamycin and its analogues are under clinical trials in cancer patients.\nThis domain contains the binding site for tetratricopeptide repeat (TPR) domains on HOP (Hsp Organizing Protein). TPR is a structural motif used by a significant number of cochaperones by which the in vivo function of Hsp90 is regulated. TPR2A on HOP binds specifically to MEEVD motif of the C-terminal of Hsp90.\nA homogeneous AlphaScreen is developed to assess the interaction between TPR2A and MEEVD motif of the C-terminal of Hsp90 by using the isolated TPR2A domain and a synthesized 20mer Hsp90 C terminal peptide. AlphaScreen is two bead-based proximity-dependent chemical energy transfer luminescent assay platform. TPR2A-His-6 and biotinylated Hsp90 C terminal peptide will bring streptavidin donor beads and nickel chelate acceptor beads to a proximity range (less than 200 nm), and subsequently lead a chemical luminescent reaction upon exciting donor beads with 680 nm laser. Inhibition of TPR2A and MEEVD motif interaction by small molecules could attenuate or abolish this chemical luminescent reaction.\nCounter screening: Biotinylated-His-6 (PerkinElmer) can be utilized as a counter screen, as it serves as a linker to bring streptavidin beads and nickel chelate beads together. The counter screen can exclude alpha screen platform false positives due to small molecules being metal chelators, biotin analogues and imidazole analogues, or due to interfering with oxygen release from donor beads. Such an assay should be utilized to qualify any activity observed in this screen.\nNCGC Assay Protocol Summary:\nThe assay was performed on 1536-well white plate (untreated solid bottom). Liquids were dispensed by 1536-well plate washer (Kalypsys, San Diego, CA). Plates were read on EnVision (PerkinElmer, Boston, MA).TPR2A-His6 was produced using a bacteria expression system and purified using a well developed method (Ghosh et al., 2000). Hsp90 C terminal 20-mer peptide with or without an N-terminal biotin group are synthesized using automated solid phase synthesis by the Yale Keck facility. The composition of assay buffer was (in mM) 25 HEPES, 100 KCl, 2 MgCl2 and 2 DTT; 0.1% BSA and 0.01% Tween-20. TPR2A-His6 binding to biotin-Hsp90 will bring streptavidin donor beads and nickel chelate acceptor beads (PerkinElmer) together and can be measured by Alpha reading by EnVision (PerkinElmer). Free Hsp90 blocks biotin-Hsp90 binding to TPR2 and serves as a positive control in the current asssay.\nThe assay was performed at room temperature. All compounds were screened as titrations from […] to 46 uM final concentration. The assay was performed in 1536-well format plates (untreated white solid bottom, Corning Inc.) as follows:\nSequence,Parameter,Value,Description\n1,Reagent,3 uL TPR2A-His6,Final concentration was 5nM\n2,Compound,23 nL,Final titration was from 0.7 nM to 46 uM\n3,Time,15 minutes,Room temperature\n4,Reagent,1 uL biotin-Hsp90,With and without free Hsp90. Final concentration was 10 nM for biotin-Hsp90 and 10uM for free Hsp90.\n5,Time,1 hour,Room temperature\n[…]"}
{"smiles": "CP(=O)(Nc1ccccc1F)Oc1ccccc1", "note": "(configuration not stated)", "activity change, negative = inhibition": "inactive: -0.711%"}
{"smiles": "CCC(C)(OO)OOC(C)(CC)OO", "note": "(configuration not stated)", "activity change, negative = inhibition": "inactive: 0.712%"}
{"smiles": "Cc1cccc([N+](=O)[O-])c1[N+](=O)[O-]", "activity change, negative = inhibition": "inactive: -1.87%"}
{"smiles": "CN(C)CCOC(=O)C(O)(c1ccccc1)C1CCCCC1", "note": "(configuration not stated)", "activity change, negative = inhibition": "inactive: -2%"}
{"smiles": "Cc1ccc([N+](=O)[O-])c([N+](=O)[O-])c1", "activity change, negative = inhibition": "inactive: -4.72%"}
{"smiles": "Cc1c([N+](=O)[O-])cccc1[N+](=O)[O-]", "activity change, negative = inhibition": "inactive: 3.98%"}
{"smiles": "CCOP(=O)(CC)OCC", "activity change, negative = inhibition": "inactive: -0.92%"}
{"smiles": "CCOP(C)(=S)SCC(=O)NC(C)(CC)C(=O)O", "note": "(configuration not stated)", "activity change, negative = inhibition": "inactive: 1.95%"}
{"smiles": "NNC(NN)NN.n1nc(-c2nn[nH]n2)n[nH]1", "activity change, negative = inhibition": "inactive: -2.14% [at 11 µM]"}
{"smiles": "Cc1ccccc1NP(C)(=O)Nc1ccccc1C", "activity change, negative = inhibition": "inactive: -2.27%"}
{"smiles": "[NH4+].[O-][Cl+3]([O-])([O-])[O-]", "activity change, negative = inhibition": "inactive: -0.364%"}
{"smiles": "CP(=O)(Nc1ccc2c(c1)OCCO2)Oc1ccccc1", "note": "(configuration not stated)", "activity change, negative = inhibition": "inactive: -7.12%"}
{"smiles": "CP(=O)(Oc1ccccc1)N1CCOC1=O", "note": "(configuration not stated)", "activity change, negative = inhibition": "inactive: -3.21%"}
{"smiles": "C/C1=C2N=C(/C=C3N=C(/C(C)=C4\\[N-][C@@](C)([C@H]5N=C1[C@@](C)(CCC(=O)NC[C@H](C)OP(=O)([O-])O[C@@H]1[C@H](O)[C@H](n6cnc7cc(C)c(C)cc76)O[C@@H]1CO)[C@@H]5CC(N)=O)[C@](C)(CC(N)=O)[C@H]4CCC(N)=O)[C@@](C)(CC(N)=O)[C@@H]\\3CCC(N)=O)C(C)(C)[C@@H]/2CCC(N)=O.[C-]#N.[Co+3]", "activity change, negative = inhibition": "inactive: -0.479% [at 26 µM]"}
{"smiles": "COc1ccccc1OP(C)(=O)Nc1ccc(C)c(C)c1", "note": "(configuration not stated)", "activity change, negative = inhibition": "inactive: -2.93%"}
{"smiles": "Cc1nc2ccc3ccccc3c2o1.O=[N+]([O-])c1cc([N+](=O)[O-])c(O)c([N+](=O)[O-])c1", "activity change, negative = inhibition": "inactive: -6.66%"}
{"smiles": "CP(=O)(Nc1ccccn1)Oc1ccccc1", "note": "(configuration not stated)", "activity change, negative = inhibition": "inactive: -3.6%"}
{"smiles": "O=[N+]([O-])[O-].[NH4+]", "activity change, negative = inhibition": "inactive: -3.32%"}
{"smiles": "COc1ccccc1OP(C)(=O)Nc1ccc(C)cc1", "note": "(configuration not stated)", "activity change, negative = inhibition": "inactive: -0.664%"}
{"smiles": "Cc1ccc(NP(C)(=O)Oc2ccccc2)c(C)c1", "note": "(configuration not stated)", "activity change, negative = inhibition": "inactive: -8.58%"}
{"smiles": "CP(=S)(Nn1cnnc1)Oc1ccccc1", "note": "(configuration not stated)", "activity change, negative = inhibition": "inactive: -1.01%"}
{"smiles": "CP(=O)(NC(=O)Nc1ccccc1)Oc1ccccc1", "note": "(configuration not stated)", "activity change, negative = inhibition": "inactive: -2.36%"}
{"smiles": "CCOP(C)(=S)SCC(=O)NC(C)C(=O)O", "note": "(configuration not stated)", "activity change, negative = inhibition": "inactive: 3.44%"}
{"smiles": "Cc1nc2ccc3ccccc3c2s1.O=[N+]([O-])c1cc([N+](=O)[O-])c(O)c([N+](=O)[O-])c1", "activity change, negative = inhibition": "inactive: -0.255%"}
{"smiles": "O=[N+]([O-])c1cccc([N+](=O)[O-])c1", "activity change, negative = inhibition": "inactive: -3.42%"}
{"smiles": "Cc1ccc([N+](=O)[O-])cc1[N+](=O)[O-]", "activity change, negative = inhibition": "inactive: -8.31%"}
{"smiles": "Cc1ccc(C)c(NP(C)(=O)Oc2ccccc2)c1", "note": "(configuration not stated)", "activity change, negative = inhibition": "inactive: -1.6%"}
